Key:
wtKIT [1] = biological target: T1, wtKIT (Homo sapiens, UniProt P10721); test: HTRF biochemical assay, wtKIT (phosphorylation of a peptide substrate); conditions: read-out: KIT Biochemical IC50 avg, Table 4
CSF-1R [2] = biological target: T2, CSF-1R (Homo sapiens, UniProt P07333); test: HTRF biochemical assay, CSF-1R; conditions: read-out: CSF-1R Biochemical IC50 avg, Table 4
PDGFRα [3] = biological target: T3, PDGFRα (Homo sapiens, UniProt P16234); test: HTRF biochemical assay, PDGFRα; conditions: read-out: PDFGRα Biochemical IC50 avg, Table 4
wtKIT [4] = biological target: T1, wtKIT; test: Caliper biochemical assay, wtKIT; conditions: read-out: KIT Biochemical IC50 avg, Table 6
CSF-1R [5] = biological target: T2, CSF-1R; test: Caliper biochemical assay, CSF-1R; conditions: read-out: CSF-1R Biochemical IC50, Table 6
PDGFRα [6] = biological target: T3, PDGFRα; test: Caliper biochemical assay, PDGFRα; conditions: read-out: PDGFRα Biochemical Avg IC50, Table 6
[7] = test system: KIT phosphorylation in M-07e cells; test: Cell-based KIT phosphorylation in M-07e cells by pKIT ELISA; conditions: read-out: M-07e pKIT IC50, SCF stimulation
CYP3A4 = test: Hepatocyte CYP induction assay, CYP3A4 gene expression; conditions: human hepatocytes
Caco-2 cells = test: Caco-2 permeability assay; conditions: for Caco-2: Papp A-B: Caco-2, apical to basolateral
[8] = biological target: BCRP (BCRP-MDCKII monolayer) (Homo sapiens, UniProt Q9UNQ0); test: MDCKII-BCRP bidirectional transport assay; conditions: for MDCK-BCRP: Papp A-B: apical to basolateral
[9] = Three time point assay for plasma, brain and testes distribution after oral dosing; conditions: rat, time point 2 h
Kinetic solubility assay = conditions: 50 mM PB (pH 7.4), shaken 24 hours at RT
MDR1 (MDR1-MDCKII cells) = MDR1 (MDR1-MDCKII cells) (Homo sapiens, UniProt P08183); test: Permeability in MDR1-MDCKII cells; conditions: for MDCKII-MDR1: Papp A-B: MDCKII-MDR1, apical to basolateral

Chains of the proteins cited; added tags and fusions are not shown. Residues count along the entry.
UniProt P10721, 26-976 limits assumed: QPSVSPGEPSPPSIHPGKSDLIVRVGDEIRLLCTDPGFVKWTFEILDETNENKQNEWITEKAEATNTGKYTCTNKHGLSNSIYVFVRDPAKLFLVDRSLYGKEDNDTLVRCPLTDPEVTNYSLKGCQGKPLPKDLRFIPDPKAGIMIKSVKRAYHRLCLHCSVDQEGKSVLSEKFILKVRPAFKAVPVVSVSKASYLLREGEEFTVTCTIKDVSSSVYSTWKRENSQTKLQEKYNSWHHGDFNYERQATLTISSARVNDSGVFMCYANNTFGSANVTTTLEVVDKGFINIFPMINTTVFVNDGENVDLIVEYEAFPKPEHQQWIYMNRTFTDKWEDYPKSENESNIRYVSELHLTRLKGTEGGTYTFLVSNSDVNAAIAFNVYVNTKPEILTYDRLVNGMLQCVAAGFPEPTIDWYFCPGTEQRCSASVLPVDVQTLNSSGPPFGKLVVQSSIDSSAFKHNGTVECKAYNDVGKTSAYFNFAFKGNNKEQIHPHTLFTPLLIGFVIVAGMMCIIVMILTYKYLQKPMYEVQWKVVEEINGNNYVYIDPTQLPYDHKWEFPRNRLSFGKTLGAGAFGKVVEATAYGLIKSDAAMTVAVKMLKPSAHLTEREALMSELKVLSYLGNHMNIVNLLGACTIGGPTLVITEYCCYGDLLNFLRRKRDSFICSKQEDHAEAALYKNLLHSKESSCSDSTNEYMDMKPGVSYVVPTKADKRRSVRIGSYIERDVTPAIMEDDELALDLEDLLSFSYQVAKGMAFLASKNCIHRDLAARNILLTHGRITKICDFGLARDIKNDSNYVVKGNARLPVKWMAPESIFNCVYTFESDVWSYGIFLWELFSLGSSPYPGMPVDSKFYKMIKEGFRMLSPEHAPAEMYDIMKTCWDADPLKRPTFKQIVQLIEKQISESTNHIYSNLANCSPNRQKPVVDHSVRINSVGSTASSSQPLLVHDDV
UniProt P07333, 20-972 limits assumed: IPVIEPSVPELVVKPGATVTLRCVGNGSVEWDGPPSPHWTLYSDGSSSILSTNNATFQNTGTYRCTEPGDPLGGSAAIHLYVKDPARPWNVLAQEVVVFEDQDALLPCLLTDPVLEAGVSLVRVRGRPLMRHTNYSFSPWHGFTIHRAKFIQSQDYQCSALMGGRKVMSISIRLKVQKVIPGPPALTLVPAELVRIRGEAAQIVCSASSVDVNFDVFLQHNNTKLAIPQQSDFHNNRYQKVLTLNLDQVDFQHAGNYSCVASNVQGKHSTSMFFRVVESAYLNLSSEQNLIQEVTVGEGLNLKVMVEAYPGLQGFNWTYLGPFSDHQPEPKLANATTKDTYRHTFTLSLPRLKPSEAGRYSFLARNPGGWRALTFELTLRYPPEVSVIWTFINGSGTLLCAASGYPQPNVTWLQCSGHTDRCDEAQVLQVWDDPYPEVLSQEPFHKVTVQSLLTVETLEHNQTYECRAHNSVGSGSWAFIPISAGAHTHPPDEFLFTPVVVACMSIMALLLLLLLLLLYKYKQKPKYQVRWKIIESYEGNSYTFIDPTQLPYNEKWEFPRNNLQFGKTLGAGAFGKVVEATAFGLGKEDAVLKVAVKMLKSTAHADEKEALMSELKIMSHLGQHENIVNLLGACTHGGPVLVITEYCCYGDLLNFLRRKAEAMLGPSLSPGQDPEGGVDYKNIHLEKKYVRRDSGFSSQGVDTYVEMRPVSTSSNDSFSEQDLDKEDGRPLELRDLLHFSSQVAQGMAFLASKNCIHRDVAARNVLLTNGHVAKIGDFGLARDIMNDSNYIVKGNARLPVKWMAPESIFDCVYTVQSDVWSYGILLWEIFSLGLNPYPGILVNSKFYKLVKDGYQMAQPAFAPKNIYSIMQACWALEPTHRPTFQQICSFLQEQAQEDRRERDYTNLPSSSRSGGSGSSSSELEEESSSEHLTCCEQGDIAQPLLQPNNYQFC
UniProt P16234, 24-1089 limits assumed: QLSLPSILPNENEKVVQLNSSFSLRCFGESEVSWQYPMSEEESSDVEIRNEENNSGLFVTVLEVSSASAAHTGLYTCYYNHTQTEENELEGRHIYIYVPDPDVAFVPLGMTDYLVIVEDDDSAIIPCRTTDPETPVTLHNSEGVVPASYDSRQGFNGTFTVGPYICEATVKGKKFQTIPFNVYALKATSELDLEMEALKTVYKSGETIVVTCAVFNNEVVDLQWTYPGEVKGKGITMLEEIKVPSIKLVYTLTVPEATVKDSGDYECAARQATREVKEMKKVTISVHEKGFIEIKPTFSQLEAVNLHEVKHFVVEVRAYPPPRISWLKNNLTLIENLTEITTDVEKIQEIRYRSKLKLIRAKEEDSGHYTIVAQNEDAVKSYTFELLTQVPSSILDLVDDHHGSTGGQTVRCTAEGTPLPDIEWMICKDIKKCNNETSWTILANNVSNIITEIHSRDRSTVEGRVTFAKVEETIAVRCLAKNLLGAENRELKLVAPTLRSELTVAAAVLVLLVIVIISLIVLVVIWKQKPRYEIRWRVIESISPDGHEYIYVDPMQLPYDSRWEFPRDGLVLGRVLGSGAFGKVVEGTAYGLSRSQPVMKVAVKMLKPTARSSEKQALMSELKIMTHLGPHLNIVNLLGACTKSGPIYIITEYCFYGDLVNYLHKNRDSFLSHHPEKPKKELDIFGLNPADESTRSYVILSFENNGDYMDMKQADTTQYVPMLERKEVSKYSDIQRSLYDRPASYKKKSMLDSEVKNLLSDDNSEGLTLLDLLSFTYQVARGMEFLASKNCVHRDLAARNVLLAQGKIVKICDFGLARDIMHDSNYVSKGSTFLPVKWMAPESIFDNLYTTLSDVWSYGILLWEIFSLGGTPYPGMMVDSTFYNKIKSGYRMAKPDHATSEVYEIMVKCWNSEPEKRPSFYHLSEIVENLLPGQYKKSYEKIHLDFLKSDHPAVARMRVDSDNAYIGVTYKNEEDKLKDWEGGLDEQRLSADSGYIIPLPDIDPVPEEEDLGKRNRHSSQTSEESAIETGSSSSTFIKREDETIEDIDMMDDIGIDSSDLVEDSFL
UniProt Q9UNQ0, whole entry: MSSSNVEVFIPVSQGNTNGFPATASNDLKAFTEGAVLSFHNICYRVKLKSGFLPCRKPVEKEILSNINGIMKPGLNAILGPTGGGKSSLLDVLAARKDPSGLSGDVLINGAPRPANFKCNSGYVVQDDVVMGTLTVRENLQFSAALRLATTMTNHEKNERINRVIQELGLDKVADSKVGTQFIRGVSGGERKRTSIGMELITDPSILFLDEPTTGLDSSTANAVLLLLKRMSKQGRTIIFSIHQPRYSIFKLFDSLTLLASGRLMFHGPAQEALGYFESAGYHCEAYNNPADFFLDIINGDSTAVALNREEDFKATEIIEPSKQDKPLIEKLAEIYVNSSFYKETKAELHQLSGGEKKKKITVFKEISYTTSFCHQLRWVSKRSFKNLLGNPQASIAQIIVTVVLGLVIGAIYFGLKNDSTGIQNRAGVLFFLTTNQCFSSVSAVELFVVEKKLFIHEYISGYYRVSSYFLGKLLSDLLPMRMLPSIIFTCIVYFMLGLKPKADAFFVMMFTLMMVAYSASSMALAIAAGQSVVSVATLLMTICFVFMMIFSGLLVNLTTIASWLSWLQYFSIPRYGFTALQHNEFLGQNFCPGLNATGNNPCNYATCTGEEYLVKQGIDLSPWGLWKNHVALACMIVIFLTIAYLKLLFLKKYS
UniProt P08183, whole entry: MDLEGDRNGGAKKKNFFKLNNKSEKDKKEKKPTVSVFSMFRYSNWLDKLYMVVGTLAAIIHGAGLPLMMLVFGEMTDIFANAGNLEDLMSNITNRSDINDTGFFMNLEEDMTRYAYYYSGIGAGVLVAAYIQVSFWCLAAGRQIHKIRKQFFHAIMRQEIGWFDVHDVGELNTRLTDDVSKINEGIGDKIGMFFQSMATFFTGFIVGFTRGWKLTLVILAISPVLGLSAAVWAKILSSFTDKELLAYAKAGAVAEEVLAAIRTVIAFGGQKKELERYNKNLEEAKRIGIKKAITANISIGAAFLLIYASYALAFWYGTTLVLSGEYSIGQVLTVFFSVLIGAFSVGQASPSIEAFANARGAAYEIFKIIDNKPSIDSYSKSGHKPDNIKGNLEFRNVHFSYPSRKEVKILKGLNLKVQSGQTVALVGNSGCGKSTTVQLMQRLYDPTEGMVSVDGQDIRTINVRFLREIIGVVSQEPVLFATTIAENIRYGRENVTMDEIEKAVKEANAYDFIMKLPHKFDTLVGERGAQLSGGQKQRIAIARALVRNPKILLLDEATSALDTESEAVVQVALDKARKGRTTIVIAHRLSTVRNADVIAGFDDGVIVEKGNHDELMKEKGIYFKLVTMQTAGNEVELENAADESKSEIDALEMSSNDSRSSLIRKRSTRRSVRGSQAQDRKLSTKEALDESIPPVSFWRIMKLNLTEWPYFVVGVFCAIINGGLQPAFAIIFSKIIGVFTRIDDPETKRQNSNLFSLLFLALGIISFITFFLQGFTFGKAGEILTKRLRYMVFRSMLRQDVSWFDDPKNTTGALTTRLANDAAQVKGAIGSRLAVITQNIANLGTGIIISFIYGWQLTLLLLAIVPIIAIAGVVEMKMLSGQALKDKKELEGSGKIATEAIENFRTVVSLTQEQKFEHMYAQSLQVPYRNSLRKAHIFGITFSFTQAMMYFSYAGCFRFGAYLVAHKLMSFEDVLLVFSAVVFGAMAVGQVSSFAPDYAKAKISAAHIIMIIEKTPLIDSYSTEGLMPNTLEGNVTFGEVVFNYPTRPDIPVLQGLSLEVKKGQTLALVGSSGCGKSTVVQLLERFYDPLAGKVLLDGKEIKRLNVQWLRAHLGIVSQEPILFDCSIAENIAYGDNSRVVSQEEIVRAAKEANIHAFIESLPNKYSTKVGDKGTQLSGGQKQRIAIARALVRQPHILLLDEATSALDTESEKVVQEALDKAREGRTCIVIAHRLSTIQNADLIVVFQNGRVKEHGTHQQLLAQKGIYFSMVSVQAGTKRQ

SMILES | IC50 (wtKIT [1]) | IC50 (CSF-1R [2]) | IC50 (PDGFRα [3]) | IC50 (wtKIT [4]) | IC50 (CSF-1R [5]) | IC50 (PDGFRα [6]) | IC50 [7] | CYP 3A4 induction mRNA: Mean fold at 10 μM (CYP3A4; donor two) | Caco-2: Efflux Ratio (Caco-2 cells) | Caco-2: Papp A-B (Caco-2 cells) | MDCK-BCRP: Efflux Ratio [8] | MDCK-BCRP: Papp A-B [8] | Brain concentration [9] | Kp brain/plasma [9] | Kp testes/plasma [9] | Plasma concentration [9] | Testes concentration [9] | Solubility (μM) (Kinetic solubility assay) | MDCKII-MDR1: Efflux Ratio (MDR1 (MDR1-MDCKII cells)) | MDCKII-MDR1: Papp A-B (MDR1 (MDR1-MDCKII cells)) | further results
Cc1ccc(-c2noc([C@H]3C[C@H]3F)n2)cc1NC(=O)c1cnc2ccccn12 | < 50 nM | 50 to 500 nM | 500 to 5000 nM | < 50 nM | 50 to 500 nM | 500 to 5000 nM | < 50 nM | ++ (induction fold of greater than 2-fold to less than or equal to 3-fold) | – | – | – | – | – | – | – | – | – | – | – | – | –
Cc1ccc(-c2noc(C3CC3C#N)n2)cc1NC(=O)c1cnc2ccccn12 (centres unmarked) | < 50 nM | – | – | < 50 nM | – | – | < 50 nM | – | 2.02 | 15.2 10^−6 cm/s | 4.48 | 4.51 10^−6 cm/s | 845 ng/g | 0.23 | 0.47 | 3680 ng/mL | 1740 ng/g | *** (a solubility greater than 2 μM and less than or equal to 10 μM) | – | – | CYP 3A4 induction mRNA: Mean fold at 10 μM (CYP3A4; donor one): +++ (induction fold of greater than 3-fold to less than or equal to 10-fold)
COc1ccn2c(C(=O)Nc3cc(-c4noc(C5CC5F)n4)ccc3C)cnc2c1 (centres unmarked) | < 50 nM | < 50 nM | 50 to 500 nM | < 50 nM | < 50 nM | 50 to 500 nM | < 50 nM | +++ (induction fold of greater than 3-fold to less than or equal to 10-fold) | 0.68 | 15.9 10^−6 cm/s | 0.92 | 12.6 10^−6 cm/s | 4470 ng/g | 0.5 | 0.36 | 8980 ng/mL | 3240 ng/g | **** (a solubility less than or equal to 2 μM) | 0.64 | 14.8 10^−6 cm/s | –
Cc1ccc(-c2noc([C@@H]3CC[C@@H]3C#N)n2)cc1NC(=O)c1cnc2ccccn12 (relative stereo) | – | – | – | < 50 nM | 50 to 500 nM | 500 to 5000 nM | < 50 nM | +++ (induction fold of greater than 3-fold to less than or equal to 10-fold) | 2.42 | 11.6 10^−6 cm/s | 3.83 | 7.64 10^−6 cm/s | 289 ng/g | 0.15 | 0.38 | 1920 ng/mL | 732 ng/g | *** (a solubility greater than 2 μM and less than or equal to 10 μM) | 1.35 | 17.7 10^−6 cm/s | –
Cc1ccc(-c2noc(C[C@@H](C)O)n2)cc1NC(=O)c1cnc2ccccn12 | 50 to 500 nM | 500 to 5000 nM | 5000 to 30000 nM | < 50 nM | 50 to 500 nM | 500 to 5000 nM | < 50 nM | + (induction fold of less than or equal to 2-fold) | 1.87 | 6.65 10^−6 cm/s | 14.8 | 2.22 10^−6 cm/s | – | – | – | – | – | * (a solubility greater than 50 μM) | 1.9 | 14.3 10^−6 cm/s | –

From US20240254119A1 (THIRD HARMONIC BIO, INC., priority 2022, published 2024)
